For this data set the following is noted: measured water solubility of salt compared to documented solubility of salicylic acid / salicylsalicylic acid. How it is done: Measurement of the water solubility of the test compounds is accomplished by using methods well known to those skilled in the art. […] The total volume of the solution is measured.

Regarding “{[Amino(imino)methyl]amino}(dimethylamino)methaniminium salicylate [Example 1]”, the “times more soluble than the parent acid” value is given as 415 times.

(Values after patent publication US8440723B2, “Metformin salts of salicylic acid and its congeners” (priority 2011, dated 2013).)
